# Reference: paper PMC2475716 (The Journal of Biological Chemistry, 2008)
# Biological target: T1, Decoy Met (UniProt P08581 25-932)
# T1 sequence (looked up): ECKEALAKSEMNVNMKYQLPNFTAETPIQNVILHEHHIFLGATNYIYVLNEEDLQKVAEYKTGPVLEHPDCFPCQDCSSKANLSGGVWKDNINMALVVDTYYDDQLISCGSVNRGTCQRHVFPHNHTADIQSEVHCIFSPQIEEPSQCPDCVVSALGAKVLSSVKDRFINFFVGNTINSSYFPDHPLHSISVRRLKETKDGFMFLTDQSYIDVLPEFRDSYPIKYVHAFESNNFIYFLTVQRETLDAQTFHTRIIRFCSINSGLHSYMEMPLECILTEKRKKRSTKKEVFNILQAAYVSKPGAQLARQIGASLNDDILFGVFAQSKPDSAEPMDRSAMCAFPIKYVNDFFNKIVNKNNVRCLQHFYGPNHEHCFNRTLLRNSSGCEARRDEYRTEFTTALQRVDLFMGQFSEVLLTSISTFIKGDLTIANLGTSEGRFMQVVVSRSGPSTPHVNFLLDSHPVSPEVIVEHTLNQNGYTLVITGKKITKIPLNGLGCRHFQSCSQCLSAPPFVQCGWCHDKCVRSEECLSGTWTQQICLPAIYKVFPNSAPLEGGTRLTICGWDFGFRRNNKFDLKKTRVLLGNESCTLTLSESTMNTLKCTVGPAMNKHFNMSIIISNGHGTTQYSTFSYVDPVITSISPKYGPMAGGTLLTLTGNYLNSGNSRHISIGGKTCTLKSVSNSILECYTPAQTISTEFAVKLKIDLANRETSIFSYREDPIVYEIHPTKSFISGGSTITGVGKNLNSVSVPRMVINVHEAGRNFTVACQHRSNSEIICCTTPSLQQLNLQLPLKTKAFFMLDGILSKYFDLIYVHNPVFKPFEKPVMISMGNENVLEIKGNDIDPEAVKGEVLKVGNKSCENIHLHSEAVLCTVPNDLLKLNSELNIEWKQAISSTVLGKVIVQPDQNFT
# Assay: ELISA
binder,measurement,value
"pro-HGF (uncleavable HGF) (ligand, UniProt P14210 32-728, looked up) QRKRRNTIHEFKKSAKTTLIKIDPALKIKTKKVNTADQCANRCTRNKGLPFTCKAFVFDKARKQCLWFPFNSMSSGVKKEFGHEFDLYENKDYIRNCIIGKGRSYKGTVSITKSGIKCQPWSSMIPHEHSFLPSSYRGKDLQENYCRNPRGEEGGPWCFTSNPEVRYEVCDIPQCSEVECMTCNGESYRGLMDHTESGKICQRWDHQTPHRHKFLPERYPDKGFDDNYCRNPDGQPRPWCYTLDPHTRWEYCAIKTCADNTMNDTDVPLETTECIQGQGEGYRGTVNTIWNGIPCQRWDSQYPHEHDMTPENFKCKDLRENYCRNPDGSESPWCFTTDPNIRVGYCSQIPNCDMSHGQDCYRGNGKNYMGNLSQTRSGLTCSMWDKNMEDLHRHIFWEPDASKLNENYCRNPDDDAHGPWCYTGNPLIPWDYCPISRCEGDTTPTIVNLDHPVISCAKTKQLQVVNGIPTRTNIGWMVSLRYRNKHICGGSLIKESWVLTARQCFPSRDLKDYEAWLGIHDVHGRGDEKCKQVLNVSQLVYGPEGSDLVLMKLARPAVLDDFVSTIDLPNYGCTIPEKTSCSVYGWGYTGLINYDGLLRVAHLYIMGNEKCSQHHRGKVTLNESEICAGAEKIGSGPCEGDYGGPLVCEQHKMRMVLGVIVPGRGCAIPNRPGIFVRVAYYAKWIHKIILTYKVPQS",fold reduced affinity compared with active HGF,3 fold
